From US12539311B2, “Short-acting heparin-based anticoagulant compounds and methods” (The University of North Carolina at Chapel Hill, priority 2017, dated 2026)

Protein sequences, listed by entry. Tags and fused reporters are not part of them. Residues count along the entry.
UniProt P01008, 33-464 limits assumed: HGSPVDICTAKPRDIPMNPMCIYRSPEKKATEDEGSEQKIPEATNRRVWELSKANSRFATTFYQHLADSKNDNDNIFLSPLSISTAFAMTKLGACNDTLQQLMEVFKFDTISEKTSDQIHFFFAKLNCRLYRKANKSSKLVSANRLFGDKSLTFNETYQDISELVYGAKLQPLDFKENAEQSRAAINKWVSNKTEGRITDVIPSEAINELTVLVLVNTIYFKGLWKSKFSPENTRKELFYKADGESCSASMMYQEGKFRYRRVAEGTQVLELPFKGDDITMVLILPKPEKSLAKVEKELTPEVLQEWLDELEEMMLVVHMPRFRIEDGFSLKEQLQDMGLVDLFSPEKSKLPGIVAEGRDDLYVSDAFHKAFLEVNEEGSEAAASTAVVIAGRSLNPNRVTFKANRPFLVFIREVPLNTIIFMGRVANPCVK

Molecular target: antithrombin (AT) (Homo sapiens, UniProt P01008)
Assay: AT-binding affinity analysis using isothermal titration calorimetry (ITC)

O=C(O)[C@H]1O[C@@H](Oc2ccc([N+](=O)[O-])cc2)[C@H](O)[C@@H](O)[C@@H]1O[C@H]1O[C@H](COS(=O)(=O)O)[C@@H](O[C@@H]2O[C@@H](C(=O)O)[C@@H](O[C@H]3O[C@H](COS(=O)(=O)O)[C@@H](O[C@@H]4O[C@@H](C(=O)O)[C@@H](O[C@H]5O[C@H](COS(=O)(=O)O)[C@@H](O[C@@H]6O[C@H](C(=O)O)[C@@H](O[C@H]7O[C@H](COS(=O)(=O)O)[C@@H](O)[C@H](O)[C@H]7NS(=O)(=O)O)[C@H](O)[C@H]6O)[C@H](OS(=O)(=O)O)[C@H]5NS(=O)(=O)O)[C@H](O)[C@H]4OS(=O)(=O)O)[C@H](OS(=O)(=O)O)[C@H]3NS(=O)(=O)O)[C@H](O)[C@H]2OS(=O)(=O)O)[C@H](O)[C@H]1NS(=O)(=O)O
binding to AT (in words): high AT-binding affinity
